Values quoted from earlier work as cited in US20230154571A1, “METHOD AND DEVICE FOR SELECTING A SUBASSEMBLY OF MOLECULES FOR USE IN PREDICTING AT LEAST ONE PROPERTY OF A MOLECULAR STRUCTURE” (published 2023).
Some compounds may have been tested in ways that are not shown here.

System: different bacterial cultures
Details: for Experimental data: Annex 1, AMES mutagenicity test, load molecules, data validated at the level of the European authorities; for Exp. data: Annex 2, AMES mutagenicity test, different categories of molecules

| Molecule | Experimental data | Exp. data |
| --- | --- | --- |
| O=[N+]([O-])c1cc([N+](=O)[O-])c(O)c([N+](=O)[O-])c1 | + | + |
| O=[N+]([O-])c1cc([N+](=O)[O-])cc([N+](=O)[O-])c1 |  | + |
| Ammonium dinitramide |  | + |
| Dinitroanisole | + | + |
| Tetryl | + | + |
| ammonium nitrate |  | − |
| ammonium perchlorate |  | − |
| styphnic scid |  | − |
